Results: article PMC4546618, “Casitas B-Lineage Lymphoma RING Domain Inhibitors Protect Mice against High-Fat Diet-Induced Obesity and Insulin Resistance” (PLoS ONE, 2015)

Target: T1, Cbl (RING) protein (Homo sapiens, UniProt P22681)
T1 construct: including the linker and RING domain (codon 358–457); GST (Glutathione S-Transferase); made in house
T1 sequence (P22681 358-457): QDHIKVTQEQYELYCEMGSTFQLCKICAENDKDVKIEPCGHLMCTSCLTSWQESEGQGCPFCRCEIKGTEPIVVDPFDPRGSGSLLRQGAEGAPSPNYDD
Assay: Fluorescence polarization (FP) assay, competition with FITC-βA-PFKPP-NH2 probe
Assay type: binding
Details: probe FITC-βA-PFKPP-NH2 100 nmol/L, Cbl (RING) protein 3 μmol/L, PBS pH 7.4
Protocol: Peptides and peptide mimetics were purchased from MitenChem (China) with a purity ≥ 98%. Concentrations values of reconstituted peptides were determined by amino acid analysis at the protein core facility (Chengdu Medical College). The recombinant Cbl protein was produced by the Chengdu Medical College Protein Core Facility and was described previously. The c-Cbl (RING) protein, including the linker and RING domain (codon 358–457), was tagged with Glutathione S-Transferase (GST) and purified with GSH-Sepharose (Shanghai Biopharma).
The FP assay was developed and validated previously. Briefly, fluorescein-labeled probe (FITC-βA-PFKPP-NH2, 100 nmol/L) and Cbl (RING) protein (3 μmol/L) were mixed and diluted to the final concentration using 0.01% Triton X-100 in PBS (pH = 7.4). Then, 19 μl of this master mix was loaded to each reaction well. The peptides or peptide mimetics were then loaded to the designated wells (1 μl, 10 μmol/L– 0.078 μmol/L, half-fold dilutions). The total fluorescence and polarization values were measured at an excitation wavelength of 485 nm and an emission wavelength of 538 nm using a ZS-2 plate reader. The data was fitted, and the ΔmP, Kd, and Ki values were estimated, using SigmaPlot 11.0.

Ac-K(u)ATK-NH2 [Peptide 52] gave a Ki of 66.4 ± 10.8 µM.

With Ac-P(h)KP(u)-NH2 [Peptide 23] the Ki was > 250 µM.
